Amino acid sequences for entries named in this document (tags omitted).
UniProt P03372, whole entry: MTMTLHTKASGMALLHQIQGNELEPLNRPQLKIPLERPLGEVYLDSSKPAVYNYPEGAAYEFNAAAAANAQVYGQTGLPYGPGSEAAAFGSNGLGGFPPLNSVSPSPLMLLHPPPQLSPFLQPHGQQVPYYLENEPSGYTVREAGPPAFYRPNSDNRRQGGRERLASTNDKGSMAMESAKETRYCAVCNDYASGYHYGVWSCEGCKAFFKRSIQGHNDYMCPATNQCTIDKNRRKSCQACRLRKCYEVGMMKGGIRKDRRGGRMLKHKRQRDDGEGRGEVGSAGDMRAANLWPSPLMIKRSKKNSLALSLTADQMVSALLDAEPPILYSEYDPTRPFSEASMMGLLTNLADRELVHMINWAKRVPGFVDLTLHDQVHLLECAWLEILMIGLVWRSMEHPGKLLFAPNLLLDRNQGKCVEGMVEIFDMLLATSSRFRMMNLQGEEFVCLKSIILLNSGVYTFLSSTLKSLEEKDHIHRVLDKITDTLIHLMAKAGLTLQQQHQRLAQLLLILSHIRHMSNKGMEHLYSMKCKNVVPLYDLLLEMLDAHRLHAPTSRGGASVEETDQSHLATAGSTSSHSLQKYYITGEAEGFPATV

According to patent US10654867B2 (Genentech, Inc., priority 2016, dated 2020):

Target: estrogen receptor alpha (ESR1) in MCF7 breast cancer cells (Homo sapiens, UniProt P03372)
Assay: Breast Cancer Cell ERa High Content Fluorescence Imaging Degradation Assay (ER-alpha MCF7 HCS)

Question: With `C[C@H]1CN(CC(C)(C)F)[C@@H](c2c(F)cc(OCCN3CC(CF)C3)cc2F)c2[nH]c3ccccc3c21` (single isomer, unassigned) as the compound, how does the “ER-alpha MCF7HCS Sinf” value (4 hours, plateau of the maximal effect, DMSO and fulvestrant define 0% and 100% change in ESR1, Table 1a) read?
Answer: −45%

Question: And the EC50 (read-out: ER-alpha MCF7HCS EC50, 4 hours incubation, inflexion point of curve (Robust Fit), Table 1a)?
Answer: 0.0434 µM
